Values of other authors, collected in patent US20190241968A1, “BIOMARKER FOR PREDICTING RESPONSIVENESS TO ANTICANCER AGENT FOR GASTRIC CANCER AND USE THEREOF” (SAMSUNG LIFE PUBLIC WELFARE FOUNDATION, priority 2018, published 2019).

Tested on: HER2-overexpressed cardiac muscle cells
Conditions: human, in vivo; cited from earlier work

Substance: trastuzumab: anti-HER2 antibody
- major dose-limiting effect: cardiotoxicity
